Data from US6683107B2, “Furans, benzofurans, and thiophenes useful in the treatment of insulin resistance and hyperglycemia” (Wyeth, priority 1998, dated 2004).

Protein sequences, listed by entry. Tags and fused reporters are not part of them. Lines headed by an entry give the natural chain unless they say otherwise; changes in a name come on top.
UniProt P18031: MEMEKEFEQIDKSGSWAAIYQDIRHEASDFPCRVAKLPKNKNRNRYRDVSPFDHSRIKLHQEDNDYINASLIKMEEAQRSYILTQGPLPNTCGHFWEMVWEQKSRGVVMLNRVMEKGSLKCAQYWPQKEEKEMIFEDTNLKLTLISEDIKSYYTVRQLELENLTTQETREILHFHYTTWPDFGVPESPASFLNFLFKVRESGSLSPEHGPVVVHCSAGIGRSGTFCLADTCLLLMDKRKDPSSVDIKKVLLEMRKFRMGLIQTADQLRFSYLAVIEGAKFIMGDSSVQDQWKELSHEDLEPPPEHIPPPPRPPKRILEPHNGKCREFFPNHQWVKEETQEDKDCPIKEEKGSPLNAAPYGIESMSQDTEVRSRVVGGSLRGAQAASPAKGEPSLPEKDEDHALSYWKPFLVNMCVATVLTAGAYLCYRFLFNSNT

Target: human recombinant PTP1B (hPTP1B) (Homo sapiens, UniProt P18031)
Assay: Inhibition of tri-phosphorylated insulin receptor dodecaphosphopeptide dephosphorylation by hPTP1B (malachite green phosphate detection)
Assay type: biochemical
Conditions: insulin receptor 1142-1153 triphosphopeptide substrate, 37° C., 30 min, pH 7.4

Phenylarsine oxide
IC50: 39.7 µM
